Experimental data published in patent publication US20230322822A1, “ARYL PHOSPHOROUS OXIDE COMPOUNDS AND USE THEREOF” (Chengdu Di'ao Jiuhong Pharmaceutical Factory, priority 2020, published 2023).

Amino acid sequences for entries named in this document (tags omitted). Residues count along the entry.
UniProt P00533, 25-1210 T790M/C797S limits assumed: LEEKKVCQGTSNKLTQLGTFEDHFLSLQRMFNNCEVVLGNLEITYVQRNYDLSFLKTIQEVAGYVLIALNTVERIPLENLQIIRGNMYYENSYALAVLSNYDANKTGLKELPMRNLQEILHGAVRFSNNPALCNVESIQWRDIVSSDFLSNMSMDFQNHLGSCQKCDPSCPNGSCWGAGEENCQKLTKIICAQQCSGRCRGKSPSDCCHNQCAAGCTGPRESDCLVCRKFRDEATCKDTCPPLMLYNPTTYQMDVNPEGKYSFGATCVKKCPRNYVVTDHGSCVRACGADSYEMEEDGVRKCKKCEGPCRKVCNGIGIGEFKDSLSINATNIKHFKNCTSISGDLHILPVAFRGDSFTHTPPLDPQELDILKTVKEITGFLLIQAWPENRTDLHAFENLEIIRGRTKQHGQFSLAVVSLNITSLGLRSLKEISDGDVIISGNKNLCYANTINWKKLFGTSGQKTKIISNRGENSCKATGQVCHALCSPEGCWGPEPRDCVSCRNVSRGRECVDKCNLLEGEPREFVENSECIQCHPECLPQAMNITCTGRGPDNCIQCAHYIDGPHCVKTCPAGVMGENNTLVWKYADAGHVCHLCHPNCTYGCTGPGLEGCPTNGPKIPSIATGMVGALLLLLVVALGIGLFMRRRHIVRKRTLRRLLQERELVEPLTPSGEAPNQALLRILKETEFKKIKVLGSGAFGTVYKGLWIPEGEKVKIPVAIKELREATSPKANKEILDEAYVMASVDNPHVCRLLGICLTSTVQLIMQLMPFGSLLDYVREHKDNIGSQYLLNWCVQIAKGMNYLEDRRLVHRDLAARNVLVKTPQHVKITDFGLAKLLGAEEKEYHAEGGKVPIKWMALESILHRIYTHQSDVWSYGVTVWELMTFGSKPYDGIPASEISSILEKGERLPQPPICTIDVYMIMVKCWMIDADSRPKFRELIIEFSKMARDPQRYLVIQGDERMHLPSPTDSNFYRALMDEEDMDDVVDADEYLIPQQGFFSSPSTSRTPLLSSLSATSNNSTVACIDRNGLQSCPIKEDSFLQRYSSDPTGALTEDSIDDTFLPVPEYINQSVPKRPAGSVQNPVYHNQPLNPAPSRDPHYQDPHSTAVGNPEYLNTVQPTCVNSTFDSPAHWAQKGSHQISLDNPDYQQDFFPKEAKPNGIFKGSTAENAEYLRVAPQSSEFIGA
UniProt P00533, 25-1210 C797S limits assumed: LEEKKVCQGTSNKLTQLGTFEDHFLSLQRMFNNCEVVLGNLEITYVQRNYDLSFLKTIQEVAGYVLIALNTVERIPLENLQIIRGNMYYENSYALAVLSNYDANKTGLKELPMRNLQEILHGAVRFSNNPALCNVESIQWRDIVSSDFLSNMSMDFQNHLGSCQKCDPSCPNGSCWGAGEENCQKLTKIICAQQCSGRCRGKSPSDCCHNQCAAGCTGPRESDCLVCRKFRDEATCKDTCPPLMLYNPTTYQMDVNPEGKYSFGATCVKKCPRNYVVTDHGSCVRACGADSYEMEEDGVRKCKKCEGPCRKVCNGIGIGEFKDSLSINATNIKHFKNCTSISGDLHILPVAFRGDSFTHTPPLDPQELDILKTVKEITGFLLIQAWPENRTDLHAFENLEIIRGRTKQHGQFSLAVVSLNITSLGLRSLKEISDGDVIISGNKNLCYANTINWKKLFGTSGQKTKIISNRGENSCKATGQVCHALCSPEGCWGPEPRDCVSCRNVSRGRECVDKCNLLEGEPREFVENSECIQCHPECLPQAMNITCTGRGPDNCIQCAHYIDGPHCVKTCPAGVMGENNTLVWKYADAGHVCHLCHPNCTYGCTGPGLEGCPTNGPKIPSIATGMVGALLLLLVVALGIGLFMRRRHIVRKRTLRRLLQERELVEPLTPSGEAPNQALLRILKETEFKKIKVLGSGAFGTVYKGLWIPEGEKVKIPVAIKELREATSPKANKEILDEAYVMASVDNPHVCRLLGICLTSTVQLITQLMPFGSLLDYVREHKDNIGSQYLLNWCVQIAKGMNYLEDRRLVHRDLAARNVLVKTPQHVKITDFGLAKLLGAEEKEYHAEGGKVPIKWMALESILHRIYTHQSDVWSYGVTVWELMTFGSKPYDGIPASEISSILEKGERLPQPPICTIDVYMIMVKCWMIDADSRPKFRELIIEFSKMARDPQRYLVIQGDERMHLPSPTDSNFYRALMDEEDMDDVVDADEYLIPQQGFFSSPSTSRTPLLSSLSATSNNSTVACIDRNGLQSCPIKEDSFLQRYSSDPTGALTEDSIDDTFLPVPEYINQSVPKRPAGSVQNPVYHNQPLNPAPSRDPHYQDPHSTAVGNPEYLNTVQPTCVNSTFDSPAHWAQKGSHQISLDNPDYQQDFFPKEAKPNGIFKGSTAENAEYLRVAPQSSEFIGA

These compounds were tested against EGFR-C797S/T790M/Del19 (Homo sapiens, UniProt P00533, C797S/T790M, form not given) (assay: Enzymatic activity test (ADP-Glo) EGFR-C797S/T790M/Del19). Conditions: kinase.
Type: biochemical
In the case of `COc1cc(N2CCC(N3CCN(C)CC3)CC2)c(C)cc1Nc1ncc(Cl)c(Nc2ccccc2P(C)(C)=O)n1` [Control compound 2, reference compound], the IC50 is reported as over 250 nM. `COc1cc(N2CCC(N3CCN(C)CC3)CC2)c(C)cc1Nc1ncc(Br)c(Nc2cc(C)ccc2P(C)(C)=O)n1` [Compound 9] gave an IC50 of 26.4 nM. For `COc1cc(N2CCC(N3CCN(C)CC3)CC2)c(Cl)cc1Nc1ncc(Br)c(Nc2ccc(C)cc2P(C)(C)=O)n1` [Compound 14], the IC50 was 6.6 nM. `COc1cc(N2CCC(N3CCN(C)CC3)CC2)c(C)cc1Nc1ncc(Br)c(Nc2ccc(C)cc2P(C)(C)=O)n1` [Compound 2] gave an IC50 of 4.2 nM. `CCc1cc(Nc2ncc(Br)c(Nc3ccc(C)cc3P(C)(C)=O)n2)c(OC)cc1N1CCC(N2CCN(C)CC2)CC1` [Compound 12] gave an IC50 of 7.5 nM. Compound `COc1cc(N2CCC(N3CCN(C)CC3)CC2)ccc1Nc1ncc(Cl)c(Nc2ccc(C)cc2P(C)(C)=O)n1` [Control compound 3, reference compound] has an IC50 of over 250 nM. Compound `COc1cc(N2CCC(N(C)C)CC2)c(C)cc1Nc1ncc(Cl)c(Nc2ccc(C)cc2P(C)(C)=O)n1` [Compound 5] has an IC50 of 6.9 nM. `COc1cc(N2CCC(N3CCN(C)CC3)CC2)c(C)cc1Nc1ncc(Br)c(Nc2ccc(F)cc2P(C)(C)=O)n1` [Compound 11] showed an IC50 of 4.4 nM. `COc1cc(N2CCC(N3CCN(C)CC3)CC2)c(Br)cc1Nc1ncc(Br)c(Nc2ccc(C)cc2P(C)(C)=O)n1` [Compound 32] gave an IC50 of 9.7 nM. In the case of `COc1cc(N2CCC(N3CCN(C)CC3)CC2)c(C)cc1Nc1ncc(Cl)c(Nc2ccc(C)cc2P(C)(C)=O)n1` [Compound 1], the IC50 is reported as 10.8 nM. In the case of `COc1cc(N2CCC(N3CCN(C)CC3)CC2)c(C)cc1Nc1ncc(Cl)c(Nc2cccc(C)c2P(C)(C)=O)n1` [Control compound 1, reference compound], the IC50 is reported as 161 nM. For `Cc1ccc(Nc2nc(Nc3cc(C)c(N4CCC(N5CCN(C)CC5)CC4)cc3OC(F)F)ncc2Br)c(P(C)(C)=O)c1` [Compound 24], the IC50 was 24.5 nM.

What follows are compounds tested against EGFR-C797S/Del19 (Homo sapiens, UniProt P00533, C797S, form not given) (assay: Enzymatic activity test (ADP-Glo) EGFR-C797S/Del19). Conditions: kinase.
Type: biochemical
With `COc1cc(N2CCC(N(C)C)CC2)c(C)cc1Nc1ncc(Br)c(Nc2ccc(C)cc2P(C)(C)=O)n1` [Compound 6] the IC50 was 33.8 nM.
